Results published in patent publication US8017791B2 (dated 2011).
Entries after “also recorded” stand apart in the source; their conditions may differ. Where a name gives a salt, the structure may show the parent alone. Read-outs that look alike come from different tables or passages of the source.

The chains behind the UniProt entries cited, without tags or fusion partners. Residues count along the entry.
UniProt P23977, whole entry: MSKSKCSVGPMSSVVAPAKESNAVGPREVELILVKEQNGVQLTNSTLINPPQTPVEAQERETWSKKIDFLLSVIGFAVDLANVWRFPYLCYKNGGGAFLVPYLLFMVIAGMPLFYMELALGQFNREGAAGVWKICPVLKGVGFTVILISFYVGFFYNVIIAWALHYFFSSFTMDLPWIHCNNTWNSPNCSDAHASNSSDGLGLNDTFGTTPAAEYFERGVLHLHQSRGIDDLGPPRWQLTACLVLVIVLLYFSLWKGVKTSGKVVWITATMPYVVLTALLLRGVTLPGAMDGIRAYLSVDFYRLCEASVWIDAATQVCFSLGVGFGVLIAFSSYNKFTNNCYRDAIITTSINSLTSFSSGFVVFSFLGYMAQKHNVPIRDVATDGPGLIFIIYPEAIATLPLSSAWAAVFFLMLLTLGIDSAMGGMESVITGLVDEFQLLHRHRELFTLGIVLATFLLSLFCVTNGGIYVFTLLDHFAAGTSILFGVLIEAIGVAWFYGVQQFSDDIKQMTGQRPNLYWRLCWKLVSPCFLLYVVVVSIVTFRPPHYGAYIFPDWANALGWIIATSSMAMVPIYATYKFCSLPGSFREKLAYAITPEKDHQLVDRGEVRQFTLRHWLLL
UniProt P31652, whole entry: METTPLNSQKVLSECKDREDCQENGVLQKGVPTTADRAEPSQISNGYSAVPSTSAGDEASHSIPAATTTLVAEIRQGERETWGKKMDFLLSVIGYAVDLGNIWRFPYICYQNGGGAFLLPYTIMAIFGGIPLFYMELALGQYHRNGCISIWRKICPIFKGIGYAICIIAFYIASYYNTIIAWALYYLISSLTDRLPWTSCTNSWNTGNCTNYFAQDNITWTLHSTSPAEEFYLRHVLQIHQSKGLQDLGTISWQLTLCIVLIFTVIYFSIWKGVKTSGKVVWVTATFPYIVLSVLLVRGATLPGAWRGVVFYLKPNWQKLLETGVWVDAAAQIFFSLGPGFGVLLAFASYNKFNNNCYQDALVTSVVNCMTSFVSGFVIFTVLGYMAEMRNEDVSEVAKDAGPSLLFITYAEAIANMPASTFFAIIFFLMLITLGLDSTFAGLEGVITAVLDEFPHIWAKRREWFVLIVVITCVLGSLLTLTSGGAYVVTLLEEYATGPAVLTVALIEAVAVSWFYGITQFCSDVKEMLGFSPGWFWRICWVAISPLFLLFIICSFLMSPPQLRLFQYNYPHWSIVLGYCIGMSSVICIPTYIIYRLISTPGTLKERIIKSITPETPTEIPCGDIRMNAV
UniProt Q63380, 1-617: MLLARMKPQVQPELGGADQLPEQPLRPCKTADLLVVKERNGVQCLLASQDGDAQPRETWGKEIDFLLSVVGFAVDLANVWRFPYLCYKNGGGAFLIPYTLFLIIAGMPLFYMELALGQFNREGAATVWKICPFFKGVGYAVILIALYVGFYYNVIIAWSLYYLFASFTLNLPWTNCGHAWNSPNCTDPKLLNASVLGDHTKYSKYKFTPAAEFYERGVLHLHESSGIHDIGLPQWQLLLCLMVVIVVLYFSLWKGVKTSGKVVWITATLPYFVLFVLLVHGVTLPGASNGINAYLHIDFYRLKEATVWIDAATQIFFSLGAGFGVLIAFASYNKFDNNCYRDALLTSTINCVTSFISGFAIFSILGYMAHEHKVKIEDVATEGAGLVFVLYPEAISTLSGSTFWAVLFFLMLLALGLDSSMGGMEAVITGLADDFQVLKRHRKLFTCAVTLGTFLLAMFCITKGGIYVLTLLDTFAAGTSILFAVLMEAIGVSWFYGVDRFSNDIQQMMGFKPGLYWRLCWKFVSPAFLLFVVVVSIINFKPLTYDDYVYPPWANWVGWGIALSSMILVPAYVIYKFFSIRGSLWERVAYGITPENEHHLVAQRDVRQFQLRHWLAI

What was measured:
DAT [1] = target: T1, DAT (Rattus norvegicus, UniProt P23977); settings: read-out: DAT binding, IC50, [3H]Win 35,428; Table 2; values marked b: See reference # 22; cited from earlier work
SERT [2] = target: T2, SERT (Rattus norvegicus, UniProt P31652); test: Inhibition of [3H]citalopram binding to SERT
NET [3] = test: Inhibition of [3H]nisoxetine binding to NET; set-up: species or system rat
NET [4] = target: NET (Rattus norvegicus, UniProt Q9WTR4); test: Inhibition of [3H]nisoxetine binding to NET
DAT [5] = target: T1, DAT; test: Inhibition of [3H]DA uptake by DAT into rat striatal synaptosomes; assay type: biochemical
DAT [6] = target: T1, DAT; test: Inhibition of [3H]WIN 35,428 binding to DAT
NET (Rattus norvegicus) = test: NET uptake inhibition, [3H]NE; assay type: biochemical
SERT [7] = target: T2, SERT; test: SERT uptake inhibition, [3H]5-HT; assay type: biochemical
NET [8] = target: NET (Rattus norvegicus, UniProt Q63380); test: NET uptake inhibition, [3H]NE; assay type: biochemical
[9] = read-out: NET binding, IC50 [3H]nisoxetine, Table 2, average ± SEM

SMILES: Nc1ccc(CN[C@H]2CC[C@@H](C(c3ccccc3)c3ccccc3)OC2)cc1 (relative stereo) (as salt: oxalate) [Compound 16o, Cis-(6-benzhydryl-tetrahydropyran-3-yl)-(4-amino-benzyl)-amine]
- melting point: 151 to 153 °C

SMILES: N#Cc1ccc(CN[C@H]2CC[C@@H](C(c3ccccc3)c3ccccc3)OC2)cc1 (relative stereo) [Compound 16c, Cis-(6-benzhydryl-tetrahydropyran-3-yl)-(4-cyano-benzyl)-amine]
- IC50 (DAT [1]): 52.6 nM

SMILES: O=[N+]([O-])c1ccc(CN[C@H]2CC[C@@H](C(c3ccccc3)c3ccccc3)OC2)cc1 (relative stereo) [Compound 16d, Cis-(6-benzhydryl-tetrahydropyran-3-yl)-(4-nitro-benzyl)-amine]
- IC50 (SERT [2]): 738 ± 164 nM
- SERT binding/DAT binding (SERT [2]): 19.3
- NET binding/DAT binding (NET [3]): 25.3
- IC50 (NET [4]; [9]): 968 ± 98 nM

SMILES: COc1ccc(CN[C@H]2CC[C@@H](C(c3ccccc3)c3ccccc3)OC2)cc1 (relative stereo) [Compound 16e, Cis-(6-benzhydryl-tetrahydropyran-3-yl)-(4-methoxy-benzyl)-amine]
- IC50 (SERT [2]): 1180 nM
- SERT binding/DAT binding (SERT [2]): 14
- NET binding/DAT binding (NET [3]): 18.5
- IC50 (NET [4]; [9]): 1550 nM

SMILES: Oc1ccc(CN[C@H]2CC[C@@H](C(c3ccccc3)c3ccccc3)OC2)cc1 (relative stereo) [Compound 16h, Cis-(6-benzhydryl-tetrahydropyran-3-yl)-(4-hydroxy-benzyl)-amine]
- SERT binding/DAT binding (SERT [2]; Table 3, selectivity ratio of IC50 values): 5.1
- NET binding/DAT binding (NET [3]): 0.29
- NET/DAT (NET [3]): 0.29
- IC50 (NET [4]; read-out: IC50 for the NET): 22.6 nM

SMILES: Nc1ccc(CN[C@H]2CC[C@@H](C(c3ccccc3)c3ccccc3)OC2)cc1 (relative stereo) [Compound 16o, Cis-(6-benzhydryl-tetrahydropyran-3-yl)-(4-amino-benzyl)-amine]
- IC50 (SERT [2]): 1690 ± 169 nM
- SERT binding/DAT binding (SERT [2]): 11.19
- IC50 (DAT [5]): 155 ± 14 nM
- IC50 (DAT [6]): 151 ± 13 nM
- NET binding/DAT binding (NET [3]): 0.81
- IC50 (NET [4]; [9]): 123 ± 10 nM

SMILES: COc1ccc(CN[C@H]2CO[C@@H](C(c3ccccc3)c3ccccc3)C[C@@H]2O)cc1 [(+)-29a, (2R,4S,5S)-2-benzhydryl-5-(4-methoxy-benzylamino)-tetrahydro-pyran-4-ol]
- IC50 (NET (Rattus norvegicus)): 445 ± 39 nM
- IC50 (SERT [7]): 745 ± 30 nM
- IC50 (DAT [5]): 148 ± 22 nM
- IC50 (DAT [6]): 182 ± 11 nM

SMILES: O[C@H]1C[C@H](C(c2ccccc2)c2ccccc2)OC[C@@H]1NCc1ccc2[nH]ccc2c1 [(+)-32b, (2R,4S,5S)-2-benzhydryl-5-[(1H-indol-5-ylmethyl)-amino]-tetrahydropyran-4-ol]
- IC50 (NET (Rattus norvegicus)): 15 ± 4.5 nM
- IC50 (SERT [7]): 272 ± 55 nM

SMILES: Oc1ccc(CN[C@@H]2CC[C@H](C(c3ccccc3)c3ccccc3)OC2)cc1 [(+)-37a, cis-(3R,6R)-(6-benzhydryl-tetrahydropyran-3-yl)-(4-hydroxy-benzyl)-amine]
- IC50 (NET (Rattus norvegicus)): 45.6 ± 6 nM
- selectivity for the NET (NRI profile), in words (NET [8]): more selective for the NET; also recorded: selective blockers for NET

SMILES: COc1ccc(CN[C@@H]2CO[C@H](C(c3ccccc3)c3ccccc3)C[C@H]2O)cc1 [(−)-29a, (2S,4R,5R)-2-benzhydryl-5-(4-methoxy-benzylamino)-tetrahydropyran-4-ol]
- IC50 (NET (Rattus norvegicus)): 17.7 ± 5.9 nM
- IC50 (SERT [7]; read-out: SERT uptake, IC50 [3H]5-HT, Table 4, rat brain): 28.9 ± 4.1 nM
- IC50 (DAT [5]; read-out: DAT uptake, IC50 [3H]DA, Table 4, rat brain): 155 ± 16 nM
- IC50 (DAT [6]; read-out: DAT binding, IC50, [3H]Win 35,428): 226 ± 40 nM

SMILES: O[C@@H]1C[C@@H](C(c2ccccc2)c2ccccc2)OC[C@H]1NCc1ccccc1 [(−)-29d, (2S,4R,5R)-2-benzhydryl-5-benzylamino-tetrahydro-pyran 4-ol]
- IC50 (NET (Rattus norvegicus)): 5.59 ± 1.05 nM
- selectivity for the NET (NRI profile), in words (NET [8]): more selective for the NET; also recorded: selective blockers for NET
- IC50 (DAT [6]): 1860 ± 710 nM

SMILES: O[C@@H]1C[C@@H](C(c2ccccc2)c2ccccc2)OC[C@H]1NCc1ccc2[nH]ccc2c1 [(−)-32b, (2S,4R,5R)-2-benzhydryl-5-[(1H-indol-5-ylmethyl)-amino]-tetrahydropyran-4-ol]
- IC50 (NET (Rattus norvegicus)): 2.42 ± 0.47 nM
- IC50 (SERT [7]): 18.7 ± 1.6 nM

SMILES: Oc1ccc(CN[C@H]2CC[C@@H](C(c3ccccc3)c3ccccc3)OC2)cc1 [(−)-37a, cis-(3S,6S)-(6-benzhydryl-tetrahydropyran-3-yl)-(4-hydroxy-benzyl)-amine]
- IC50 (NET (Rattus norvegicus)): 5.5 ± 0.1 nM

SMILES: COC(=O)[C@H]1[C@@H](OC(=O)c2ccccc2)C[C@@H]2CC[C@H]1N2C [Cocaine, reference compound]
- IC50 (NET [4]; read-out: NET binding, IC50 [3H]nisoxetine): 3130 nM
